Binding of CDR-mutated scFvs to a peptide of the spike HR2 region

Source: Engelhart et al. 2022 (doi:10.1038/s41597-022-01779-4), MIT Lincoln Laboratory and A-Alpha Bio; data file from the FLAb repository.

Binding partner: SARS-CoV-2 spike HR2 peptide, sequence PDVDLGDISGINAS.

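Variants in AAYL50 differ from the parent at up to three CDR positions; double and triple changes were sampled at random. AlphaSeq pools MATa yeast showing the antibodies with MATalpha yeast showing the peptide. After mating in shaken culture at 30 °C for 16 h, diploids were selected and their barcode pairs sequenced. Read counts were normalised to the haploid input and turned into Kd by a linear fit to BCL2-family pairs of known affinity, for each replicate. Mating was done three times.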

Parent scFv Ab-14: VH joined to VL by a (GGGGS)3 linker. Changes lie in the light chain CDRs alone.
VH: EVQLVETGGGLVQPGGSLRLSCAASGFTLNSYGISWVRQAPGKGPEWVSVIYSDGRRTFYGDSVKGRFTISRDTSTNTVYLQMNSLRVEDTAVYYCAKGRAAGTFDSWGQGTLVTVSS
VL: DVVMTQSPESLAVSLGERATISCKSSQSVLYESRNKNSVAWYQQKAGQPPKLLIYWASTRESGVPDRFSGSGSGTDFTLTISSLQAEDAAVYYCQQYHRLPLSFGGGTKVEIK

The parent's light chain CDRs are KSSQSVLYESRNKNSVA, WASTRES, QQYHRLPLS; each variant's own CDRs replace them letter for letter.
All variants listed here change S28 of the VL, counted from its first residue.
Each Kd is an estimate from the mating assay, the geometric mean of the replicates in which the pair was seen; lower is stronger.
An entry "nd" has no value in the source: the pair was not observed among the diploids in any replicate. This suggests poor binding but is not conclusive.
Background: pairings of library AAYL50 with three empty control strains gave a value in 18% of cases (median 15 µM, 5th percentile 970 nM). Values in that range, when seen in few replicates, are hard to tell from nonspecific mating. Also given: how often the same scFv was detected with the empty control strains.

The variant KSYQYVLYESRNKNSVA / WASTRES / QQQHRLPLS showed nd (0 of 3 replicates; controls 2 of 9). The variant KSSQTVLYESRRKNSVA / WASTRES / QQYHRLPLS showed 610 nM (2 of 3 replicates; controls 0 of 9). For KSSKWVLYESRNKNSVA / WASTRES / QQFHRLPLS, the assay gave 600 nM (3 of 3 replicates; controls 5 of 9). The variant KSTQMRLYESRNKNSVA / WASTRES / QQYHRLPLS gave 23 nM (3 of 3 replicates; controls 0 of 9). The variant KSSQHVLYESRNKNSVA / WNSTRES / QQYHRLPLS showed 330 µM (2 of 3 replicates; controls 1 of 9). The variant MSSQFMLYESRNKNSVA / WASTRES / QQYHRLPLS gave 170 nM (3 of 3 replicates; controls 1 of 9). The variant KSSQVVLYESRNKNSVA / WAPTRES / QQYHRLPLS gave nd (0 of 3 replicates; controls 2 of 9). The variant KRSQMVLYESRNKNSVA / WASTRES / GQYHRLPLS showed nd (0 of 3 replicates; controls 0 of 9).

With KSSQAVLYESRNSNSVA / WASTRYS / QQYHRLPLS the result was 4.6 nM (3 of 3 replicates; controls 3 of 9). For KSSQYVLYESRNKNSVA / WASTRES / QQYHRLPLV, the assay gave 250 nM (3 of 3 replicates; controls 3 of 9). The variant KSSQMVLYESRNKNSVA / WASTRES / QNYHALPLS gave 10 nM (3 of 3 replicates; controls 0 of 9). The variant KSSQGVLYESRALNSVA / WASTRES / QQYHRLPLS gave nd (0 of 3 replicates; controls 1 of 9). For KSSQFVLYESRNKNSVA / WDSTRES / QQYHRLPLS, the assay gave 620 nM (3 of 3 replicates; controls 2 of 9). The variant KSSQEVLYESRNKNSVA / WASTREE / QQYHRLLLS gave 3.1 nM (3 of 3 replicates; controls 0 of 9). With KSSQLVLYESRWKNSVA / WASTREH / QQYHRLPLS the result was nd (0 of 3 replicates; controls 0 of 9). For KSKQPVLYESENKNSVA / WASTRES / QQYHRLPLS, the assay gave 4.1 nM (3 of 3 replicates; controls 3 of 9).

For KSSQPVLYESNNNNSVA / WASTRES / QQYHRLPLS, the assay gave 27 nM (3 of 3 replicates; controls 7 of 9). The variant KSSQPVLYESRNKNSVA / WTSTRES / QQYHRLQLS showed 23 nM (3 of 3 replicates; controls 1 of 9). The variant KSRQFVLYESRNKNSVA / WASTRES / QQYHRLPLS showed 100 nM (2 of 3 replicates; controls 3 of 9). For KSSQNVLYESRNKNSHA / WASTRES / QVYHRLPLS, the assay gave nd (0 of 3 replicates; controls 3 of 9). The variant KSSQFVLYESRNRNSVA / WASTRES / CQYHRLPLS gave nd (0 of 3 replicates; controls 0 of 9). The variant KSSQRVLYESRNKNSVA / WASTRED / QQYHRLPLS showed 48 nM (3 of 3 replicates; controls 3 of 9). With KSSQYFLYESFNKNSVA / WASTRES / QQYHRLPLS the result was 31 nM (3 of 3 replicates; controls 0 of 9). With KSSQTVLYESRNKNHVA / WASTRES / QQYHVLPLS the result was 1.5 µM (3 of 3 replicates; controls 2 of 9).

The variant KSSQEVLYESRNKNSVA / WASTREN / QQRHRLPLS gave 13 µM (1 of 3 replicates; controls 0 of 9). The variant KSSQGVLYESRNKNSVA / WISTRES / CQYHRLPLS showed nd (0 of 3 replicates; controls 0 of 9). The variant KSSQGVRYESRNKNSVA / WASTWES / QQYHRLPLS gave 6.8 µM (2 of 3 replicates; controls 5 of 9). For KSSQAVHYESRNKNSVA / WASTRES / QQYHPLPLS, the assay gave 61 nM (3 of 3 replicates; controls 1 of 9). With KSSQWVLYESRNKNSMA / WASTRNS / QQYHRLPLS the result was 1.4 µM (3 of 3 replicates; controls 4 of 9). With KSMQHVLYESRNKNIVA / WASTRES / QQYHRLPLS the result was 580 nM (1 of 3 replicates; controls 1 of 9). The variant KSSQRVLYESRNKNSVA / WASIRES / QQYHRLCLS gave 16 nM (3 of 3 replicates; controls 0 of 9). With KSSQQVLYESRNKNSVA / WASTRFS / QQYHRLELS the result was 48 nM (3 of 3 replicates; controls 1 of 9).

For KSSQHVLYESRNQNSVA / WASTREN / QQYHRLPLS, the assay gave nd (0 of 3 replicates; controls 0 of 9). With KSSQHVLNRSRNKNSVA / WASTRES / QQYHRLPLS the result was 390 nM (3 of 3 replicates; controls 7 of 9). For KSSQFVLYESRNKNSVA / WASTSQS / QQYHRLPLS, the assay gave 150 nM (3 of 3 replicates; controls 3 of 9). The variant RSSQEVLYESRNKNSVA / WASTRES / MQYHRLPLS showed 440 µM (2 of 3 replicates; controls 1 of 9).